Measurements: ChEMBL document CHEMBL1137617, “Potent, orally bioavailable calcitonin gene-related peptide receptor antagonists for the treatment of migraine: discovery of N-[(3R,6S)-6-(2,3-difluorophenyl)-2-oxo-1- (2,2,2-trifluoroethyl)azepan-3-yl]-4- (2-oxo-2,3-dihydro-1H-imidazo[4,5-b]pyridin- 1-yl)piperidine-1-carboxamide (MK-0974)” (J Med Chem, 2007)

Amino acid sequences for entries named in this document (tags omitted). A change or cut given only in a name is not applied to a line headed by its entry.
UniProt Q16602: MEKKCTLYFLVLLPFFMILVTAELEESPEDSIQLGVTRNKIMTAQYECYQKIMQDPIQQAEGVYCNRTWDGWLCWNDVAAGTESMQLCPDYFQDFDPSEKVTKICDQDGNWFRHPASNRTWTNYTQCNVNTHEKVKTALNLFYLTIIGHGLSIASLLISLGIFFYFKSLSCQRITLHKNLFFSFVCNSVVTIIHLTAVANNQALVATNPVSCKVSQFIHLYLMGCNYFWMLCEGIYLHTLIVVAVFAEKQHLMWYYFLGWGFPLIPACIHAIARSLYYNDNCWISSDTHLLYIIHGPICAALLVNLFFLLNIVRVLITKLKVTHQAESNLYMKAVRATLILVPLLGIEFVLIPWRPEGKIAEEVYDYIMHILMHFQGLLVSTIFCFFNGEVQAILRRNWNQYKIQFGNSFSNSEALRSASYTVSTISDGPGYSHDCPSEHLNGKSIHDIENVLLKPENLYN

How the values were obtained:
[1] = system: Canis lupus familiaris; test: Oral bioavailability in dog at 1 mg/kg; conditions: in vivo
[2] = biological target: Calcitonin gene-related peptide type 1 receptor (Homo sapiens, UniProt Q16602); test: Ratio of IC50 for human CL receptor in E10 cells in presence of 50% human serum over IC50 for human CL receptor in E10 cells
[3] = Oral bioavailability in rat at 10 mg/kg; type: ADME, organism-based; conditions: in vivo
Procedure, shortened: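 In rats, the oral dose of 10 mg/kg was given as a suspension in 1% aqueous methylcellulose.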

bioavailability [1] | Ratio IC50 [2] | bioavailability [3] | Compound
60% | 2.8 | – | CN1C[C@H](c2cccc(F)c2F)CC[C@@H](NC(=O)N2CCC(n3c(=O)[nH]c4ncccc43)CC2)C1=O
1% | 1 | – | O=C(N[C@@H]1CC[C@@H](c2cccc(F)c2F)CN(CCN2CCOCC2)C1=O)N1CCC(n2c(=O)[nH]c3ncccc32)CC1
7% | 6 | – | O=C(N[C@@H]1CC[C@@H](c2cccc(F)c2F)CN(CCOC(F)(F)F)C1=O)N1CCC(n2c(=O)[nH]c3ncccc32)CC1
11% | 3 | – | O=C(N[C@@H]1CC[C@@H](c2cccc(F)c2F)CN(CC(F)F)C1=O)N1CCC(n2c(=O)[nH]c3ncccc32)CC1
12% | 5 | 12% | O=C(N[C@@H]1CC[C@@H](c2cccc(F)c2F)CN(Cc2ccccn2)C1=O)N1CCC(n2c(=O)[nH]c3ncccc32)CC1
17% | 11 | – | O=C(N[C@@H]1CC[C@@H](c2cccc(F)c2F)CN(CC2CC2)C1=O)N1CCC(n2c(=O)[nH]c3ncccc32)CC1
30% | 1.6 | – | O=C1NC[C@H](c2cccc(F)c2F)CC[C@H]1NC(=O)N1CCC(n2c(=O)[nH]c3ncccc32)CC1
